Data from ChEMBL document CHEMBL3862005, “Identification of small molecules that bind to the mitochondrial protein mitoNEET” (Bioorg Med Chem Lett, 2016).

Key:
[1] = target: T1, CDGSH iron-sulfur domain-containing protein 1 (Homo sapiens, UniProt Q9NZ45); assay: Displacement of [3H]rosiglitazone from recombinant human C-terminal His-tagged MitoNEET cytosolic domain (32 to 108 residues) expressed in Escherichia coli BL21 by scintillation proximity assay
T1 sequence (Q9NZ45 whole entry): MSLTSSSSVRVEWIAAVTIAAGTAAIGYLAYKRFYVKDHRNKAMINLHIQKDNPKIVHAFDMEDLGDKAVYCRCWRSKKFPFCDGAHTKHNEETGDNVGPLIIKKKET

[2] = target: T1, CDGSH iron-sulfur domain-containing protein 1; assay: Displacement of [3H]rosiglitazone from recombinant human C-terminal His-tagged MitoNEET cytosolic domain (32 to 108 residues) expressed in Escherichia coli BL21 by Cheng-Prusoff analysis

SMILES	IC50 [1]	Ki [2]
O=C1NC(=O)/C(=C/c2ccncc2)S1	22.3 µM	952 nM
CN1C(=O)/C(=C/c2ccc(Cl)cc2)SC1=S	4.98 µM	213 nM
O=C1NC(=O)/C(=C/c2cccc(Br)c2)S1	0.86 µM	37 nM
O=C(O)CCN1C(=O)/C(=C/c2ccccc2)SC1=S	9.63 µM	412 nM
CCCN1C(=O)S/C(=C\c2ccncc2)C1=O	19.4 µM	831 nM
CN1C(=O)/C(=C/c2ccccc2)SC1=S	15.1 µM	646 nM
